Results from article PMC12457681.

Biological target: PLCG1 D1165H-sfGFP (UniProt P19174)

## alpha smooth muscle actin (endogenous in Hut78) (from UniProt P62736 1-377) (natural protein)
  PLCG1 phosphorylation (immunoblot) in Hut78 cells expressing PLCG1 D1165H after 0.15 μM jasplakinolide for 0.5 h (actin filaments stabilized), fold increase: 1.4 fold
  PLCG1 phosphorylation (immunoblot) in Hut78 cells expressing PLCG1 D1165H after 0.5 μM latrunculin A for 0.5 h (actin filaments destabilized), fold decrease: 1.4 fold
